Assay results published in paper PMC13278957.

System: P37840
Assay: SEC + ELISA; brain lysates (three PD Braak stage 5 or 6, three HC) fractionated by SEC by apparent molecular weight; ELISA on the fractions for the amount of αSyn; high molecular weight fractions 200 kDa to 5 MDa

## α-synuclein (endogenous, human post-mortem brain)
  percent of total α-synuclein that is aggregated (high molecular weight SEC fractions): approx. 0.5% of total
